# scFv variants of Ab-95 (light chain) against a SARS-CoV-2 spike peptide

From the AlphaSeq antibody data of Engelhart et al. 2022 (doi:10.1038/s41597-022-01779-4), copy in the FLAb collection.

All variants were tested on one target, the spike HR2 peptide PDVDLGDISGINAS (SARS-CoV-2).

Each scFv is VH, the linker GGGGSGGGGSGGGGS, VL, as in the parent Ab-95, and differs from it in the CDRs of the light chain only.
VH: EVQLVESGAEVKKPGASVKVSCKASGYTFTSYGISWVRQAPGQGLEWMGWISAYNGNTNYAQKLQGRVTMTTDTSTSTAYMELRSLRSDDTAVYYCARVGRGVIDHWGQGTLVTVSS
VL: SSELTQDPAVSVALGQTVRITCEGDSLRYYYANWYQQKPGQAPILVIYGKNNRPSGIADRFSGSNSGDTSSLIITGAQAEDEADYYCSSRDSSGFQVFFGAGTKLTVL

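The library (AAYL52) carries one to three amino acid substitutions per variant, with no insertions or deletions. In AlphaSeq, yeast of one mating type display the scFv and yeast of the other type display the target. Binding brings cells together so that they mate, and sequencing counts the barcode pairs among the diploids. A regression on co-assayed BCL2-family reference pairs converts the normalised counts of each replicate to an apparent Kd. There are three technical replicates.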

Each variant is given by its three light chain CDRs, as the data file delimits them; those of the parent are EGDSLRYYYAN, GKNNRPS, SSRDSSGFQVF.
This list gathers variants with a substitution at R28 (VL, numbered from residue 1).
The Kd shown is the geometric mean over detected replicates; a lower Kd is a better binder.
A pair that was not seen in any replicate is written "nd"; this usually means weak binding, but a binder can also be missed.
The list is sorted by this average, lowest first, undetected variants last.
Nonspecific signal, from three strains lacking the peptide, appeared in 28% of pairings of library AAYL52, centred on 8.2 µM (5% of these signals below 800 nM); values are not corrected for it.
For reference, the parent read 200 nM as the reference entry and 180 nM as a member of this library.

* EGDSLLYYGAN | GKNNRPS | MSRDSSGFQVF: 16 nM (3 of 3 replicates)
* EGDSLTEYYAN | GKNNRPS | SSRDSSGFQVF: 540 nM (2 of 3 replicates)
* EGASLGYYYAN | GKNNRPS | NSRDSSGFQVF: 640 nM (3 of 3 replicates)
* EGVSLGYYYAN | GKNNRPS | SSRDSSGFQVF: 690 nM (2 of 3 replicates)
* EGDSLLYYYAN | GKNNRPS | SSRDSYGKQVF: 1.9 µM (3 of 3 replicates)
* EGDLLDYYYAN | GKNNRPE | SSRDSSGFQVF: 2.5 µM (2 of 3 replicates)
* EADSLDYYYAN | GKNNRPS | SSRDSSGFQVG: 2.9 µM (2 of 3 replicates)
* EGDSLQYYYGN | GKNNRPS | SFRDSSGFQVF: 3.8 µM (1 of 3 replicates)
* EGESLVYYYAN | GKNNRCS | SSRDSSGFQVF: 26 µM (1 of 3 replicates)
* EGDSLEYYYEN | GKNNHPS | SSRDSSGFQVF: nd (0 of 3 replicates)
* EGDSWDYYYAG | GKNNRPS | SSRDSSGFQVF: nd (0 of 3 replicates)

Repeated from above, the 2 best binders with a signal in all replicates:

CDR-L1,CDR-L2,CDR-L3,Kd,seen in
EGDSLLYYGAN,GKNNRPS,MSRDSSGFQVF,16 nM,3 of 3
EGASLGYYYAN,GKNNRPS,NSRDSSGFQVF,640 nM,3 of 3